Values quoted from earlier work as cited in patent US20150056166A1, “FLAVONE DERIVATIVES AND THEIR USE” (Twincore GmbH, priority 2012, published 2015).

Conditions: cited from earlier work

Magnesium stearate
level generally considered safe for human consumption: below 2500 mg/kg per day
